Water solubility values, as collected for the OPERA models

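The numbers are reported measurements, compiled and curated for the OPERA QSAR suite. The files give a single number for a compound and property, which may rest on several reports. Method, purity and exact conditions of the single measurements are not given. Where a salt, mixture or single isomer is drawn, the source does not say that exactly this form was tested. Unmarked limits or estimates from the upstream databases cannot be ruled out.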

Water solubility is log10 of mol/L, nominally at 25 °C; higher is more soluble.

For O=C(O)C(Cl)(Cl)Cl the data give log S -0.57 (log10 mol/L). The entry for FC(F)=C(F)OC(F)(F)F lists log S -3.722 (log10 mol/L). CC(C)CCC1(C)C(=O)NC(=O)NC1=O has log S -2.424 (log10 mol/L). For O=[N+]([O-])c1ccc(NS(=O)(=O)c2ccc(Cl)c(C(F)(F)F)c2)c(Cl)c1 the data give log S -5.16 (log10 mol/L). The entry for O=C(O)CC(Br)C(=O)O (centres undefined) lists log S -0.215 (log10 mol/L). Listed for CCc1ccccc1N: log S -1.619 (log10 mol/L). The entry for C=CCc1ccc2c(c1)OCO2 lists log S -3.33 (log10 mol/L).

C[C@@]12CC[C@@H]3[C@H](CCC4CCCC[C@]43C)[C@H]1CCC2=O (some centres not stated) is reported with log S -5.7 (log10 mol/L). The entry for COc1cc(Oc2ccc(Cl)cc2Cl)ccc1[N+](=O)[O-] lists log S -6.02 (log10 mol/L). CN1CCC2=C(C1)C(c1ccccc1)c1ccccc12 (centres undefined) is reported with log S -3.975 (log10 mol/L). OCC1C(CO)C2(Cl)C(Cl)=C(Cl)C1(Cl)C2(Cl)Cl (centres undefined) has log S -3.08 (log10 mol/L). The entry for Cn1nnnc1SSc1nnnn1C lists log S -1.759 (log10 mol/L). For CCCC(C)C1(CC)C(=O)N=C(S)NC1=O (centres undefined) the data give log S -3.36 (log10 mol/L). CCC(N)P(=O)(O)O (centres undefined) is reported with log S 0 (log10 mol/L).

Nc1nc(N)c2[nH]c(N)nc2n1 is reported with log S -1.5 (log10 mol/L). O=C(O)[C@@H](Br)[C@@H](Br)C(=O)O is reported with log S -1.131 (log10 mol/L). The entry for CC(C)(C)c1ccc(OP2OCC3(CO2)COP(Oc2ccc(C(C)(C)C)cc2C(C)(C)C)OC3)c(C(C)(C)C)c1 (centres undefined) lists log S -6.813 (log10 mol/L). O=C1CN=C(c2ccccc2)c2cc(Cl)ccc2N1CC(F)(F)F is reported with log S -5.317 (log10 mol/L). C=CCN1CC[C@]23CCCC[C@H]2[C@H]1Cc1ccc(O)cc13 is reported with log S -4.051 (log10 mol/L). [O-][N+](=Nc1ccccc1)c1ccccc1 has log S -5.3 (log10 mol/L). The entry for C[N+]1(C)CCCCC1.[Cl-] lists log S 0.524 (log10 mol/L).

ClCc1c(Cl)cccc1Cl is reported with log S -3.747 (log10 mol/L). The entry for CCCC(C)OC(N)=O (centres undefined) lists log S -1.226 (log10 mol/L). The entry for CC(Cl)S(=O)(=O)Cl (centres undefined) lists log S -1.367 (log10 mol/L). Listed for CCCCOC(=O)COC(=O)c1ccccc1C(=O)OCCCC: log S -5.2 (log10 mol/L). The entry for CCOC(CN(CC(OCC)OCC)N=O)OCC lists log S -1.606 (log10 mol/L). The entry for CC(Cc1ccc(O)cc1)NCC(O)c1cc(O)cc(O)c1 (centres undefined) lists log S -3.272 (log10 mol/L). CC(C)N(C)S(=O)(=O)N=C(O)c1cc(-n2c(=O)cc(C(F)(F)F)n(C)c2=O)c(F)cc1Cl has log S -2.38 (log10 mol/L).

The entry for CCCCCOC(=O)c1ccccc1C(=O)OCCCCC lists log S -3.486 (log10 mol/L). For C1CN1c1nc(N2CC2)nc(N2CC2)n1 the data give log S 0.292 (log10 mol/L). Listed for CC(C)ON=O: log S -1.594 (log10 mol/L). O=C=S is reported with log S -1.69 (log10 mol/L). The entry for NC(=O)c1cc([N+](=O)[O-])cc([N+](=O)[O-])c1 lists log S -1.839 (log10 mol/L). The entry for CC(C)(N)Cc1ccccc1 lists log S -2.295 (log10 mol/L). For CC(C)(C)NCC(O)c1cc(Cl)c(N)c(Cl)c1 (centres undefined) the data give log S -3.39 (log10 mol/L).

FC(F)OCC(F)(F)F has log S -2.135 (log10 mol/L). COC(=O)N(C(=O)N1CO[C@@]2(C(=O)OC)Cc3cc(Cl)ccc3C2=N1)c1ccc(OC(F)(F)F)cc1 is reported with log S -6.42 (log10 mol/L). Listed for ClC1=C(Cl)C2(Cl)C3C(Cl)OC(Cl)C3C1(Cl)C2(Cl)Cl (centres undefined): log S -6.64 (log10 mol/L). COP(=O)(OC)OC1=C(Cl)CC2C=CC12 (centres undefined) has log S -2.057 (log10 mol/L). The entry for CN(C)c1ccc(Cc2ccc(N(C)C)cc2)cc1 lists log S -4.78 (log10 mol/L). For Cc1cc(=O)n(-c2ccccc2)n1-c1ccccc1 the data give log S -3.097 (log10 mol/L).

Excerpt, the final 6 entries:

FC(F)OCC(F)(F)F has log S -2.135 (log10 mol/L).
COC(=O)N(C(=O)N1CO[C@@]2(C(=O)OC)Cc3cc(Cl)ccc3C2=N1)c1ccc(OC(F)(F)F)cc1 has log S -6.42 (log10 mol/L).
ClC1=C(Cl)C2(Cl)C3C(Cl)OC(Cl)C3C1(Cl)C2(Cl)Cl (centres undefined) has log S -6.64 (log10 mol/L).
COP(=O)(OC)OC1=C(Cl)CC2C=CC12 (centres undefined) has log S -2.057 (log10 mol/L).
CN(C)c1ccc(Cc2ccc(N(C)C)cc2)cc1 has log S -4.78 (log10 mol/L).
Cc1cc(=O)n(-c2ccccc2)n1-c1ccccc1 has log S -3.097 (log10 mol/L).

Source: data files of OPERA 2.9 (Mansouri et al.), github.com/kmansouri/OPERA.